Results published in patent publication US20140094493A1, “Novel Ether Linked Compounds and Improved Treatments for Cardiac and Cardiovascular Disease” (priority 2011, published 2014).

Protein sequences, listed by entry. Tags and fused reporters are not part of them.
UniProt P07550, whole entry: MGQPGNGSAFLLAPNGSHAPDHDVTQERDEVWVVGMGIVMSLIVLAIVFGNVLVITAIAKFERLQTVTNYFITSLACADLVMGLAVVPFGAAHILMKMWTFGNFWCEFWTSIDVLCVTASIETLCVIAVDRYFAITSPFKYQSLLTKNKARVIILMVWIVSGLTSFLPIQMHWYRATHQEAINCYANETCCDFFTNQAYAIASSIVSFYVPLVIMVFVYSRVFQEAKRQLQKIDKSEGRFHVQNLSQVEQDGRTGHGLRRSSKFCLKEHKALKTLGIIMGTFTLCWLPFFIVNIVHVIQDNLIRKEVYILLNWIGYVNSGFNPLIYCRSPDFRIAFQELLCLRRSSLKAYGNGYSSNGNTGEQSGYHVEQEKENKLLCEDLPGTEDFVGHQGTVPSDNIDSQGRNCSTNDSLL
UniProt P08588, whole entry: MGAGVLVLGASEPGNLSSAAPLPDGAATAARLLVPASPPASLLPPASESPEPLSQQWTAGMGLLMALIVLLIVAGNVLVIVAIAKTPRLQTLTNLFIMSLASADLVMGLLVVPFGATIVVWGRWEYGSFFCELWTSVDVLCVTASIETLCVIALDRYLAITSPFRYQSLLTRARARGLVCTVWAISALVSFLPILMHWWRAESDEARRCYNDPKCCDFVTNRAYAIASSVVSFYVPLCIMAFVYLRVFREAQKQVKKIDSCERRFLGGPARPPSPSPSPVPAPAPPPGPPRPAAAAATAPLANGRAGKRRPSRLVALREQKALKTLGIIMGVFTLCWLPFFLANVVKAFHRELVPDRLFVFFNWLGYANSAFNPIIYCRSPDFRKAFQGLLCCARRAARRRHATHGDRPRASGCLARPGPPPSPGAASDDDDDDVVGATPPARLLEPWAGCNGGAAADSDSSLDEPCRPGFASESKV

Legend:
human beta2-adrenoceptor = human beta2-adrenoceptor (Homo sapiens, UniProt P07550); assay: 3H-CGP12177 whole-cell binding, beta2; details: 3H-CGP 12177 whole cell binding, CHO cells expressing human beta2-adrenoceptor; logarithmic value
Method: (§1) Selectivity of ligands for the three beta-adrenoceptors was assessed by whole-cell binding studies using ^3H-CGP12177 in CHO cells expressing the human beta1, beta2 or beta3-adrenoceptors respectively essentially as described by Baker (2005; Br. J Pharmacol: 144, 317-22) Values shown are KD values determined as described by Baker (2005). KD represents the concentration of compound required to occupy 50% of the receptors in cells or tissues.
(§2) The selectivity of a ligand is given by the ratio of beta-1 to beta-2 KD. Accordingly a difference of one in the logarithmic values thereof represents a 10-fold selectivity, a difference of 2 represents 100-fold selectivity and a difference of 3 represents 1000-fold selectivity etc.

human beta1-adrenoceptor = human beta1-adrenoceptor (Homo sapiens, UniProt P08588); assay: 3H-CGP12177 whole-cell binding, beta1
Method: as §1, §2

## O=C1NCCc2cc(OCCNC[C@H](O)COc3ccc(OCCOC4CCCC4)cc3)ccc21
Human beta2-adrenoceptor
  Beta 2 Log KD: −6.46
Human beta1-adrenoceptor; 3H-CGP 12177 whole cell binding, CHO cells expressing human beta1-adrenoceptor, logarithmic value
  Beta 1 Log KD: −8.36
Human beta1-adrenoceptor; difference of Log KD beta1 and beta2, 1 = 10-fold, 2 = 100-fold, 3 = 1000-fold selectivity
  Beta 1-Beta 2 Log KD (selectivity): 1.91
